Assay results: publication PMC10762035, “Molecular basis of human trace amine-associated receptor 1 activation” (Nature Communications, 2024)
Numbering of substitutions follows the chain as printed. Where “and” joins values, the source holds several entries; their conditions need not be identical. Equal values may be shown once. Read-outs that look alike come from different tables or passages of the source.

Legend:
[1] = molecular target: T1, hTA1 F195T (Homo sapiens, UniProt Q96RJ0, F195T); experiment: GloSensor cAMP accumulation assay, F195T mutant; assay type: cell-based;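 note: cells transiently co-expressing HA-FLAG-tagged hTA1 and the GloSensor cAMP biosensor, luminescence read 30 min after agonist addition at room temperature, concentration-response fitted by nonlinear regression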
T1 construct: expressed in transfected cells; host or cells: HEK293T
T1 sequence (Q96RJ0 1-339 F195T): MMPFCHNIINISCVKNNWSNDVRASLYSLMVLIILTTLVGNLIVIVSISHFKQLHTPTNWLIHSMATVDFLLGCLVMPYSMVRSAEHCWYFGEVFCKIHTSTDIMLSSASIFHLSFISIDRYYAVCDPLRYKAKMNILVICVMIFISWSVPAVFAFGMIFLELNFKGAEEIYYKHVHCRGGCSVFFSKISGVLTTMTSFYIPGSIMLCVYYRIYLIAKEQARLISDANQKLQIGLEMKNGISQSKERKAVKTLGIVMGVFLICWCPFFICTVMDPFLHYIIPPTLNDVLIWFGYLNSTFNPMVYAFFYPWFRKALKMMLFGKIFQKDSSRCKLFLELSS

[2] = molecular target: T2, hTA1 b2N (Homo sapiens, UniProt Q96RJ0); experiment: GloSensor cAMP accumulation assay, b2N construct; assay type: cell-based; settings: n=2
T2 construct: read by me as the first 25 residues of β2AR (N); expressed in transfected cells; host or cells: HEK293T

[3] = molecular target: T3, hTA1 C88/178S (Homo sapiens, UniProt Q96RJ0, C178S/C88S); experiment: GloSensor cAMP accumulation assay, C88S/C178S double mutant; assay type: cell-based
T3 construct: expressed in transfected cells; host or cells: HEK293T
T3 sequence (Q96RJ0 1-339 C88S/C178S): T1 sequence (Q96RJ0 1-339 F195T) with C88S, C178S, T195F

[4] = molecular target: T4, hTA1 I290Y (Homo sapiens, UniProt Q96RJ0, I290Y); experiment: GloSensor cAMP accumulation assay, I290Y mutant; assay type: cell-based; settings: I290Y
T4 construct: expressed in transfected cells; host or cells: HEK293T
T4 sequence (Q96RJ0 1-339 I290Y): T1 sequence (Q96RJ0 1-339 F195T) with T195F, I290Y

[5] = molecular target: T5, β2AR-Nterm-hTA1-F112^3.41W (CryoEM Construct) (Homo sapiens, UniProt Q96RJ0, F112W); experiment: GloSensor cAMP accumulation assay, cryoEM construct; assay type: cell-based;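 note: cells transiently co-transfected with the receptor construct and GloSensor cAMP biosensor, luminescence read after 30 min compound exposure at room temperature in the dark as cAMP accumulation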
T5 construct: FLAG (N); 10xHis (N); TEV protease site (N); expressed in transfected cells; host or cells: HEK293T

[6] = molecular target: T6, hTA1 C13S (Homo sapiens, UniProt Q96RJ0, C13S); experiment: GloSensor cAMP accumulation assay, C13S mutant; assay type: cell-based
T6 construct: expressed in transfected cells; host or cells: HEK293T
T6 sequence (Q96RJ0 1-339 C13S): T1 sequence (Q96RJ0 1-339 F195T) with C13S, T195F

[7] = molecular target: T7, hTA1 T194A (Homo sapiens, UniProt Q96RJ0, T194A); experiment: GloSensor cAMP accumulation assay, T194A mutant
T7 sequence (Q96RJ0 1-339 T194A): T1 sequence (Q96RJ0 1-339 F195T) with T194A, T195F

[8] = molecular target: T8, hTA1 T271N (Homo sapiens, UniProt Q96RJ0, T271N); experiment: GloSensor cAMP accumulation assay, T271N mutant; assay type: cell-based
T8 construct: expressed in transfected cells; host or cells: HEK293T
T8 sequence (Q96RJ0 1-339 T271N): T1 sequence (Q96RJ0 1-339 F195T) with T195F, T271N

`CCc1[nH]nc(C(=O)Nc2ccc([C@H]3CNCCO3)cc2)c1C` [ralmitaront] was tested, and the EC50 ([1]; F195T mutant, Figure 5B, each row one independent experiment (3 replicates), read-out: pEC50 values, Mean (converted)) was 101 nM and 93.7 nM, the EC50 ([1]; F195T, n=2, read-out: EC50) was 621 nM and the EC50 [2] was 25.7 nM. The EC50 ([3]; C88/178S, n=2, read-out: EC50) was 113 nM, the EC50 ([3]; C88S, C178S, each row is one independent experiment, 3 replicates, read-out: pEC50 values, Mean (converted)) was 145 nM and 88 nM and the EC50 ([4]; read-out: EC50) was 43.7 nM. The EC50 ([4]; single experiments (3 replicates each), read-out: pEC50 values, Mean (converted)) was 14.1 nM and 47.3 nM and 125 nM, the EC50 ([5]; Cryo EM Construct, mean of each independent experiment (3 replicates), read-out: pEC50 values, Mean (converted)) was 1550 nM and 1180 nM and the EC50 ([5]; CryoEM Construct, n=2, read-out: EC50) was 1350 nM. The EC50 ([6]; C13S, n=2, read-out: EC50) was 140 nM, the EC50 ([6]; hTA1 C13S, mean of 3 replicates, one line per independent experiment, read-out: pEC50 values, Mean (converted)) was 158 nM and 124 nM and the EC50 ([7]; pEC50 values, Mean, T149A (so in the source), single experiments (3 replicates each)) was 25.7 nM and 69.4 nM and 56.8 nM. The EC50 ([7]; pEC50 ± SEM, T194A) was 46.8 nM, the EC50 ([8]; T271N mutant, Figure 5B, each row one independent experiment (3 replicates), read-out: pEC50 values, Mean (converted)) was 99 nM and 143 nM and the EC50 ([8]; T271N, n=2, read-out: EC50) was 119 nM.
